Test results as given in patent publication US11078197B2, “5-membered and bicyclic heterocyclic amides as inhibitors of rock” (BRISTOL-MYERS SQUIBB COMPANY, priority 2017, dated 2021).

Protein sequences, listed by entry. Tags and fused reporters are not part of them. Lines headed by an entry give the natural chain unless they say otherwise; changes in a name come on top.
UniProt O75116: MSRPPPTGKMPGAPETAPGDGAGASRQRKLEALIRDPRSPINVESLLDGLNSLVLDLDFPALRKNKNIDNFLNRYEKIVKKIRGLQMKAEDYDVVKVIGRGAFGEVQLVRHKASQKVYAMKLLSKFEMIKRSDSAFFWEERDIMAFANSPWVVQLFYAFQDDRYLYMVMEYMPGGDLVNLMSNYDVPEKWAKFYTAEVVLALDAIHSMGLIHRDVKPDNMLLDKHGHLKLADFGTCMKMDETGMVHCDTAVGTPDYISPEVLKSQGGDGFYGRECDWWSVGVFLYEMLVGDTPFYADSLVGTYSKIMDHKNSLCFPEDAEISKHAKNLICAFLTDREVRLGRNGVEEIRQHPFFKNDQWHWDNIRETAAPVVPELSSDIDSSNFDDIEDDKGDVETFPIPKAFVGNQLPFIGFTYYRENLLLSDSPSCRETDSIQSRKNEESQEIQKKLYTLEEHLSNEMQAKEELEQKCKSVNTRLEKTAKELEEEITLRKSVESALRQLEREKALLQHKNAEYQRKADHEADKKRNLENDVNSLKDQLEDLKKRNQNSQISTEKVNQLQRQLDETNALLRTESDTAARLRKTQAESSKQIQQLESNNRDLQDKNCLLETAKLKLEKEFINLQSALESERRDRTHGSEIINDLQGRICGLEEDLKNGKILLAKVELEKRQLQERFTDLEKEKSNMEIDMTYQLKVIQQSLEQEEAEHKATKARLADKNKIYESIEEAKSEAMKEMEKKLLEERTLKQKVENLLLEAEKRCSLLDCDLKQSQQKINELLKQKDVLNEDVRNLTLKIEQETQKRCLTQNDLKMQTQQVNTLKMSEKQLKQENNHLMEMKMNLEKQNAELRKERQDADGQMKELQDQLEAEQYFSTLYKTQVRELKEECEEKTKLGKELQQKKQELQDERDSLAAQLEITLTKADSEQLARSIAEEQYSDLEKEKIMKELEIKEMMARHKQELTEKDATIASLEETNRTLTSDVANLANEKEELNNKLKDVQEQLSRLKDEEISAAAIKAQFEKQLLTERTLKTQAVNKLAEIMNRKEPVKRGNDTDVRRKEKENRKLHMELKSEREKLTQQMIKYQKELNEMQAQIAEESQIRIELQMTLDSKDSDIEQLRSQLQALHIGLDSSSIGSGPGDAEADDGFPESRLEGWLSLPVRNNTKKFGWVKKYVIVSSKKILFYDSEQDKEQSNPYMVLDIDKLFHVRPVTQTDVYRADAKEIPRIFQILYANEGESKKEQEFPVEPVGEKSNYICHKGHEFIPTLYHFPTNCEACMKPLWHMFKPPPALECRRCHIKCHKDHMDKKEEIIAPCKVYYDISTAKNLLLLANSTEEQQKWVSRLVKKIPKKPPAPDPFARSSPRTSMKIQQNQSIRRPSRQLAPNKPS

Target: ROCK2 (Homo sapiens (Human), UniProt O75116)
Experiment: ROCK2 assay (peptide phosphorylation, LABCHIP 3000 Reader)
Format: biochemical
Conditions: read-out: ROCK2 Activity IC50; 5 μM ATP, 1.5 μM peptide substrate, dose-response
Protocol: After incubation, the reaction was terminated by the addition of EDTA and the phosphorylated and non-phosphorylated peptides separated using a LABCHIP®3000 Reader (Caliper Life Sciences). […] Compounds were tested in dose-response format, and the inhibition of kinase activity was calculated at each concentration of compound. […] Representative Examples were tested in the ROCK2 assay described above and found having ROCK2 inhibitory activity.

1-methyl-6-(((2S,4s,6S)-6-(5-methyl-1-(4-(trifluoromethyl)phenyl)-1H-pyrazole-4-carboxamido)spiro[3.3]heptan-2-yl)oxy)-1H-pyrazolo[3,4-b]pyridine-5-carboxamide
IC50: 5.2 nM
